Data as given in article PMC12469672, “Effects on Oral Squamous Carcinoma Cell Lines and Their Mechanisms of Pyrazole N-Aryl Sulfonate: A Novel Class of Selective Cyclooxygenase-2 Inhibitors” (International Journal of Molecular Sciences, 2025).

Tests used:
CAL-27 cells = test: CCK-8 proliferation assay, CAL-27; assay type: cell-based
Experimental: (§1) The OSCC cell lines CAL-27 (STCC12901P, Servicebio, Wuhan, China) and SAS (CC0706, Cellcook, Guangzhou, China) were cultured in Dulbecco Modified Eagle Medium F12 (DMEM/F12) (G4610-500ML, Servicebio, Wuhan, China) supplemented with 10% fetal bovine serum (FBS) (AB-FBS-DIA1050, ABW, Shanghai, China) and 100 U/mL penicillin-streptomycin-gentamicin solution (G4014-100ML, Servicebio, Wuhan, China). VERO cells were cultured in DMEM (G4524-500ML, Servicebio, Wuhan, China) supplemented with 10% FBS (AB-FBS-DIA1050, ABW, China) and 100 U/mL penicillin–streptomycin–gentamicin solution (G4014-100ML, Servicebio, Wuhan, China). […] were maintained at 37 °C in a humidified 5% CO2 incubator. For experiments, 1 × 10^6 cells were seeded per T-25 culture flask.
(§2) CAL-27, SAS, and VERO cells were seeded in 96-well plates at a density of 5000 cells per well. At specified time intervals, 10 μL of Cell Counting Kit-8 (CCK-8) reagent (K1018, Apexbio, Boston, MA, USA) was added to each well and incubated for 2 h. Absorbance at 450 nm was measured using a microplate reader (Infinite M200 Pro, Tecan Group, Männedorf, Switzerland).

SAS cells = test: CCK-8 proliferation assay, SAS; assay type: cell-based
Experimental: as §1, §2

Cc1ccc(-c2cc(C(F)(F)F)nn2-c2ccc(S(N)(=O)=O)cc2)cc1 [CXB, celecoxib, reference compound]
Selectivity Index CAL-27 (CAL-27 cells): 4.27
Selectivity Index SAS (SAS cells): 4.22
